# AlphaSeq binding of Ab-14 light chain variants to a spike HR2 peptide

From the AlphaSeq antibody data of Engelhart et al. 2022 (doi:10.1038/s41597-022-01779-4), copy in the FLAb collection.

Target peptide (SARS-CoV-2 spike, HR2 region): PDVDLGDISGINAS

Parent scFv Ab-14: VH joined to VL by a (GGGGS)3 linker. Changes lie in the light chain CDRs alone.
VH: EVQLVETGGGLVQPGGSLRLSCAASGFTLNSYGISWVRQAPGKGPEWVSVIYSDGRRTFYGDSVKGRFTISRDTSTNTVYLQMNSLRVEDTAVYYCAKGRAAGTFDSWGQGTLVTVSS
VL: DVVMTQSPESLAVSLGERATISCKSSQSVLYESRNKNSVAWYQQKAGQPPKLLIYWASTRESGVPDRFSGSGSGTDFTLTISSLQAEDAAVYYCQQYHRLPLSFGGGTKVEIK

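Variants in AAYL50 differ from the parent at up to three CDR positions; double and triple changes were sampled at random. Affinity was read by AlphaSeq, a pooled yeast mating assay with surface-displayed partners. Mating (16 h, 30 °C) was followed by selection of diploids and sequencing of their barcodes. Read counts were normalised to the haploid input and turned into Kd by a linear fit to BCL2-family pairs of known affinity, for each replicate. There are three technical replicates.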

Each variant is given by its three light chain CDRs, as the data file delimits them; those of the parent are KSSQSVLYESRNKNSVA, WASTRES, QQYHRLPLS.
Values are log10 of the apparent Kd in nM; lower means stronger binding.
Averages over replicates are reported, and they cover detected replicates only.
"nd" marks a missing value. The strain was present, yet no cells mated with the target were sequenced in that replicate, which points to weak or no binding.
Nonspecific signal, from three strains lacking the peptide, appeared in 18% of pairings of library AAYL50, centred on 4.19 (5% of these signals below 2.99); values are not corrected for it. The control count says in how many pairings with the empty strains this scFv gave a signal.

With KSRSSVLYESRNKNSVA, WASTRES, QQYHILPLS the result was 1.36, 2.00, 1.92 (mean 1.76; controls 1 of 9).
With KSSQSVLYESRNKNTVA, DASTRES, QKYHRLPLS the result was nd, 4.51, nd (controls 1 of 9).
With KSSQSVLYESPNKNSVA, WAHTRES, QQYHRLVLS the result was 4.18, nd, 5.09 (mean 4.64; controls 0 of 9).
With KSSIYVLYESRNKNSEA, WASTRES, QQYHRLPLS the result was nd, nd, nd (controls 2 of 9).
With KSSQSVLYEERNKNSVA, LMSTRES, QQYHRLPLS the result was 1.94, 2.29, 2.39 (mean 2.21; controls 0 of 9).
With KSSQSVLYESRNKNSVE, WASTRES, QTYHRLILS the result was nd, nd, nd (controls 0 of 9).
With KSSQLVLYESRNKNSYA, WASTRES, QQYHRLPLS the result was nd, 3.81, 4.60 (mean 4.20; controls 1 of 9).
With KSEQSVLYESRNKNSVW, NASTRES, QQYHRLPLS the result was nd, 3.08, nd (controls 0 of 9).
With KSSQSVLIESRNKNSLI, WASTRES, QQYHRLPLS the result was nd, 3.91, nd (controls 1 of 9).
With KSSQSVLRESRNKNSVA, QASTVES, QQYHRLPLS the result was 1.54, 1.61, 1.48 (mean 1.54; controls 0 of 9).
With KSSQSVLYESRNKNSCA, WASTRES, QQYHRLPLS the result was nd, nd, nd (controls 2 of 9).
With KSSQSVLYESRNKNSVA, WLSTRES, QQYHRLCLT the result was 2.85, 4.45, 2.43 (mean 3.24; controls 0 of 9).
With KSSQGVLYESRNKNSVA, WASTRES, QQNHPLPLS the result was 3.94, 3.64, nd (mean 3.79; controls 5 of 9).
With KSSQSRLYESRNKNSVA, WESTRES, QLYHRLPLS the result was nd, 3.90, 5.52 (mean 4.71; controls 1 of 9).
With KSSQVVLYTSRNKNSVA, WASTREW, QQYHRLPLS the result was nd, 2.96, 3.54 (mean 3.25; controls 0 of 9).
With KSSQSVLYESRNKNSVA, MASTEES, QAYHRLPLS the result was nd, nd, nd (controls 1 of 9).
With KSSRSVLYESRNKNSVA, WASTRES, FQYHRLPLS the result was 4.05, 4.68, nd (mean 4.36; controls 2 of 9).
With KSSQSVLDESANKNSVA, WASTRES, QQYHRLPLS the result was 0.38, 0.62, 0.57 (mean 0.52; controls 0 of 9).
With KWSQQVLYESRNKNSVA, WASTRES, QSYHRLPLS the result was -0.14, 0.29, 0.00 (mean 0.05; controls 0 of 9).
With KSSQSVLYESRNKNSVA, WADFRES, QTYHRLPLS the result was 4.76, 3.69, nd (mean 4.22; controls 5 of 9).
With KSSQSMLYESRNKNSVA, WWSTRES, QQYRRLPLS the result was nd, nd, nd (controls 0 of 9).
With KSSRKVLYESRNHNSVA, WASTRES, QQYHRLPLS the result was 2.37, 2.09, 2.29 (mean 2.25; controls 0 of 9).
With KSSQSVLYGSRNKNSGA, WAATRES, QQYHRLPLS the result was nd, 4.72, 3.99 (mean 4.35; controls 3 of 9).
With HSSVSVLYESRNKNSVL, WASTRES, QQYHRLPLS the result was nd, nd, nd (controls 4 of 9).
With KSSQEVLYGSRNKNSHA, WASTRES, QQYHRLPLS the result was 5.42, nd, nd (controls 5 of 9).
With KSSQSVLYESRNKNSVA, WASTREV, QQYHRLPAF the result was 1.47, 1.61, 1.62 (mean 1.57; controls 4 of 9).
With KSSQSVLPESRNKNSLA, WASTRES, QQYHRLPLS the result was nd, nd, nd (controls 2 of 9).
With KSSQSVLYESRNKNCVA, WASTRES, QQMHRLILS the result was nd, nd, nd (controls 2 of 9).
With KSSQSVLYESRNCNSVA, WRSTRES, QQYHRLPGS the result was nd, nd, nd (controls 3 of 9).
With KSSQSVLYESRNKNSVP, WAADRES, QQYHRLPLS the result was nd, nd, nd (controls 0 of 9).

A selection of 2 entries from above:

{"CDR-L1": "KSSQSVLYESRNKNCVA", "CDR-L2": "WASTRES", "CDR-L3": "QQMHRLILS", "log10 Kd (nM) by replicate": "nd, nd, nd", "log10 Kd (nM), mean": "nd", "signal with controls": "2 of 9"}
{"CDR-L1": "KSSQSVLYEERNKNSVA", "CDR-L2": "LMSTRES", "CDR-L3": "QQYHRLPLS", "log10 Kd (nM) by replicate": "1.94, 2.29, 2.39", "log10 Kd (nM), mean": "2.21", "signal with controls": "0 of 9"}

Parent in this assay: reference entry 0.65, copy in this library 1.68.